Literature values as cited in publication PMC12525602, “Identification of Selective α-Glucosidase Inhibitors via Virtual Screening with Machine Learning” (Molecules, 2025).

Test system: α-glucosidase
Settings: activity label of the modeling dataset, Table S5 (1 = active, 0 = inactive); cited from earlier work

COc1cc(/C=C/C(=O)O)ccc1O [compound 74]
activity: 0
